Yeast mating assay B: variants of the scFv Ab-14

Binding partner: SARS-CoV-2 spike HR2 peptide, sequence PDVDLGDISGINAS.

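This is the validation round: designs drawn from the data on random variants, tested in the same kind of assay. Group labels follow the data file (Ctrl: baseline library sampled from a position-specific scoring matrix, with some repeated check sequences; Rand: our label for a block that the file lists under HC and that is probably the random mutants of the ten best first-round binders; En: ensemble of fine-tuned language models; GP: Gaussian process model; GPLM: also part of the Gaussian process libraries; HC: hill climbing; Gen: genetic algorithm; Gibbs: Gibbs sampling; a sequence that several methods proposed may carry one label only). The assay is AlphaSeq: two haploid yeast populations carry antibody and antigen on their surface. After mating in shaken culture at 30 °C for 16 h, diploids were selected and their barcode pairs sequenced. Each replicate has its own calibration line, from reference interactions of the BCL2 family. The assay was run in six technical replicates.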

The variants keep the light chain, the linker and the frameworks of Ab-14 (scFv order VH, the linker GGGGSGGGGSGGGGS, VL).
VH: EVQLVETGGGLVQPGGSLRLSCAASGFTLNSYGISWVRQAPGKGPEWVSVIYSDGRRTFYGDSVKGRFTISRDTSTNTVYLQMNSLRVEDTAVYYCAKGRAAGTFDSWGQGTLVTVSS
VL: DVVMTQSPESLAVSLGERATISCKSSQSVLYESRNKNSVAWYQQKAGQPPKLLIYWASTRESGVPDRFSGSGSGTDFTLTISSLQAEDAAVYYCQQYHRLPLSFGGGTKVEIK

Each variant is given by its three heavy chain CDRs, as the data file delimits them; those of the parent are GFTLNSYGIS, VIYSDGRRTFYGDSVK, GRAAGTFDS.
The read-out is the apparent dissociation constant on a log10 scale (nM): the lower, the stronger.
The mean shown is taken over the replicates in which the pair was detected.
"no signal" means that the variant was in the library but no mating with the target was seen in any replicate; the authors take this as a sign of poor binding, and no number exists.
The list is sorted by this average, lowest first, undetected variants last.
The parent sequence was in this pool as ten entries: three were never detected, three once, and four in most replicates, with averages from 0.34 to 2.37.
The range of this assay differs from that of the first round, and the authors advise against merging the two.
A sequence that the file lists under several names has all its replicates pooled.
The authors' rule: three or more of the six replicates give a measured affinity, fewer mean a poor binder.
As a blank, each scFv also met three strains without target: over all heavy chain designs, 1% of these pairings were detected, typically at 2.08 and seldom below 0.84. For each scFv, signals with the empty controls are counted beside the result.

CDR-H1	CDR-H2	CDR-H3	group	mean log10 Kd (nM)	detected	control signals
GFDLNEYGIS	VIYADGRRTFYADSVK	GTQAGTFDQ	En_HC	-1.21	6 of 6	0 of 18
GFDLESYGIS	VIYADGSRTAYADSVK	GNVAGTFDL	En_HC	-0.67	6 of 6	0 of 18
GFDLNEYGIS	VIYADGVRTSYADSVK	GENAGTFDV	En_Gen	-0.60	6 of 6	0 of 18
GFDLNEYGIS	VIYADGVRTYYADSVK	GNQAGTFDI	En_Gen	-0.60	6 of 6	0 of 18
GFDLNEYGIS	VIYADGVRTAYADSVK	GETAGTFDM	En_Gen	-0.58	6 of 6	0 of 18
GFDLNEYGIS	VIYADGRRTFYADSVK	GQIAGTFDQ	En_HC	-0.56	6 of 6	0 of 18
GFSLNDYGIS	VIYSDGRRTFYSDSVK	GREAGTFDS	GP_Gibbs	-0.43	6 of 6	0 of 18
GFTLNDYGIS	VIYSDGRRTFYADSVK	GRVAGTFDS	GPLM_Gen	-0.42	6 of 6	0 of 18
GFDLNEYGIS	VIYADGRRTAYADSVK	GNLAGTFDV	En_Gen	-0.36	6 of 6	0 of 18
GFDLDEYGIS	VIYADGRRTAYADSVK	GTNAGTFDL	En_Gen	-0.32	6 of 6	0 of 18
GFDLNEYGIS	VIYADGKRTAYVDSVK	GNQAGTFDL	En_Gen	-0.25	6 of 6	0 of 18
GFDLNEYGIS	VIYADGSRTAYADSVK	GEVAGTFDL	En_Gen	-0.15	6 of 6	0 of 18
GFDLNEYGIS	VIYADGMRSYYADSVK	GNVAGTFDQ	En_Gen	-0.11	6 of 6	0 of 18
GFDLNEYGIS	VIYADGVRTAYADNVK	GNNAGTFDV	En_Gen	-0.06	6 of 6	0 of 18
GFDLNEYGIS	VIYADGMRTAYADDVK	GEVAGTFDI	En_Gen	-0.05	6 of 6	0 of 18
GFDLNSYGIS	VIYSDGRRTAYGDDVK	GRTAGTFDS	GP_Gen	-0.05	6 of 6	0 of 18
GFDLDEYGIS	VIYADGMRTAYADSVK	GEEAGTFDV	En_Gen	-0.01	6 of 6	0 of 18
GFDLNEYGIS	VIYADGMRTAYADKVK	GNNAGTFDL	En_Gen	0.01	6 of 6	0 of 18
GFDLNEYGIS	VIYADGVRTAYADDVK	GANAGTFDV	En_Gen	0.09	6 of 6	1 of 18
GFSLNSYGIS	VIYSDGRRTFYTDSVK	GRLAGTFDS	GPLM_Gen	0.14	6 of 6	0 of 18
GFSLNSYGIS	VIYSDGQRTFYVDDVK	GRTAGTFDS	GP_Gibbs	0.19	6 of 6	0 of 18
GFDLNSYGIS	VIYSDGRRTFYLDSVK	GEAAGTFDS	GP_Gibbs	0.22	6 of 6	0 of 18
GFTLNSYGIS	VIYSDGRRTFYIDSVK	GTVAGTFDS	GP_Gibbs	0.25	2 of 6	0 of 18
GFDLQEYGIS	VIYADGLRTAYGNSVK	GQSNALTTV	En_Gibbs	0.35	6 of 6	0 of 18
GFTLNSYGIS	VIYADGRRTFYDDQVK	GRAAGTFDS	Ctrl	0.49	6 of 6	0 of 18
GFELNEYGIS	VIYSDGRRTFYGDRVK	GRQAGTFDS	Ctrl	0.55	6 of 6	0 of 18
GFNLNSYGIS	VIYSDGRRTFYTDSVK	GKAAGTFDS	GPLM_Gibbs	0.67	6 of 6	0 of 18
GFTLNSYGIS	VIYSDGRRTFYDDNVK	GQVAGTFDS	GP_HC	0.74	5 of 6	0 of 18
GFNLNSYGIS	VIYSDGRRTFYDDSVK	GLLAGTFDS	GP_HC	0.77	6 of 6	0 of 18
GFTLNSYGIS	VIYSDGRRTAYQDSVK	GRAAGTFDS	Ctrl+GP_HC	0.78	6 of 12	0 of 36
GFELNEYGIS	VIYSDGRRTFYTDSVK	GRFAGTFDS	GPLM_HC	0.84	6 of 6	0 of 18
GFTLNSYGIS	VIYSDGRRTFYADSVK	GQVAGTFDL	GPLM_Gibbs	1.13	6 of 6	0 of 18
GFVLNDYGIS	VIYSDGRRTFYIDSVK	GRAAGTFDS	GPLM_HC	1.16	2 of 6	0 of 18
GFSLNSYGIS	VIYSDGRRTFYIDSVK	GRNAGTFDS	GP_Gen	1.16	6 of 6	0 of 18
GDDLDEVGIS	VIYADGVRNQYIQSVK	GHNAGTFDY	En_Gibbs	1.23	4 of 6	0 of 18
GFALNSYGIS	VIYSDGRRTFYGDSVK	GRQAGTFDS	Ctrl	1.24	6 of 6	0 of 18
GFQLNSYGIS	VIYSDGRRTFYQDSVK	GNVAGTFDS	GP_Gibbs	1.25	2 of 6	1 of 18
GFDLNCYGIS	VIYSDGRRTFYGDSVK	GEAAGTFDS	GP_Gen	1.30	6 of 6	0 of 18
GFSLNSYGIS	VIYSDGRRTFYQDSVK	GRTAGTFDY	GPLM_Gen	1.42	6 of 6	1 of 18
GKGVDEYGIS	VIYADGMRTEYQQSVK	GHTGGIFFV	En_Gibbs	1.76	1 of 6	1 of 18
GFTLNSYGIS	VIYSDGRRTFYHDSVV	GRLAGTFDS	Ctrl	1.88	5 of 6	0 of 18
GETLNSYGIS	VIYSDGRRTHYGDSVK	GFEAGTFDS	Ctrl	2.09	2 of 6	0 of 18
GFTLDSYGIS	VIDSDGRRTFYGDSVK	GRWAGTALS	Rand	2.09	1 of 6	0 of 18
GFELNSYGIS	VIYSDGRRTFYSDSVK	GTAAGTFDS	GPLM_Gibbs	2.29	1 of 6	0 of 18
GFTRNSYGIS	VIYSDGRRTFYGDKVK	GRVAGTFDM	Ctrl	no signal	0 of 6	0 of 18
GFGLNSFGIS	VIYSDGRRTFYGDSVK	RRAAGTFDS	Ctrl	no signal	0 of 6	0 of 18
GFQINSYGRS	VIYSDGRRTFYGDSVK	GREKGTFDS	Ctrl	no signal	0 of 6	0 of 18
GVNLDEYGIS	VIYADGVRQHYTDSVK	GTHGDFGVV	En_Gibbs	no signal	0 of 6	0 of 18
GFDIEEYGIS	VIYADGQRTMYKPNVK	GNHTGLVDI	En_Gibbs	no signal	0 of 6	0 of 18
GFGLDEYGIS	VIYADGKRYAYKNSVK	GGDGVNGLH	En_Gibbs	no signal	0 of 6	0 of 18
GFQIDEYGIS	VIYADGDRMSYDNAVK	GQISGHFDM	En_Gibbs	no signal	0 of 6	0 of 18
GFNFNEYGIS	VIYADGKRKAYSDSVK	GLSAGTMEV	En_Gibbs	no signal	0 of 6	1 of 18
GFDLNSYGIS	VIYSDGRRTFYGDSVK	GRAIGTFDS	Ctrl	no signal	0 of 6	0 of 18
GFWLNEYGIS	VIYSDGRRTFYHDSVK	GRAAVTFDN	GP_HC	no signal	0 of 6	0 of 18
GFNLDEFGIS	VIYADGNRTFYLDSFK	GENVGTVDI	En_Gibbs	no signal	0 of 6	1 of 18
GFTLNDYGIS	VPYSDGRRTFYGDSVK	GRAALTFIS	Rand	no signal	0 of 6	0 of 18

The 4 strongest on average among those seen in every replicate, once more:

{"CDR-H1": "GFDLNEYGIS", "CDR-H2": "VIYADGRRTFYADSVK", "CDR-H3": "GTQAGTFDQ", "group": "En_HC", "mean log10 Kd (nM)": "-1.21", "detected": "6 of 6", "control signals": "0 of 18"}
{"CDR-H1": "GFDLESYGIS", "CDR-H2": "VIYADGSRTAYADSVK", "CDR-H3": "GNVAGTFDL", "group": "En_HC", "mean log10 Kd (nM)": "-0.67", "detected": "6 of 6", "control signals": "0 of 18"}
{"CDR-H1": "GFDLNEYGIS", "CDR-H2": "VIYADGVRTSYADSVK", "CDR-H3": "GENAGTFDV", "group": "En_Gen", "mean log10 Kd (nM)": "-0.60", "detected": "6 of 6", "control signals": "0 of 18"}
{"CDR-H1": "GFDLNEYGIS", "CDR-H2": "VIYADGVRTYYADSVK", "CDR-H3": "GNQAGTFDI", "group": "En_Gen", "mean log10 Kd (nM)": "-0.60", "detected": "6 of 6", "control signals": "0 of 18"}

From the AlphaSeq antibody data of Li et al. 2023 (doi:10.1038/s41467-023-39022-2), copy in the FLAb collection.